# Data taken from PMC5244253, “Phloretin Attenuates Listeria monocytogenes Virulence Both In vitro and In vivo by Simultaneously Targeting Listeriolysin O and Sortase A” (Frontiers in Cellular and Infection Microbiology, 2017).
# Key:
# [1] = tested on: L. monocytogenes invasion into Caco-2 cells; test: L. monocytogenes invasion into Caco-2 cells (CFU assay, immunostaining); format: cell-based, Listeria monocytogenes
# [2] = tested on: intracellular L. monocytogenes in Caco-2 cells; test: Determination of intracellular viable bacteria (CFU assay); format: cell-based, Listeria monocytogenes; details: phloretin 58.34 μM during infection; Caco-2, MOI 100; 1, 3, 5 h
compound,measurement,setting,value
O=C(CCc1ccc(O)cc1)c1c(O)cc(O)cc1O [phloretin],ability of EGDe bacteria to invade cells (CFU assay),"[1]; EGDe pre-treated with phloretin 58.34 μM, Caco-2, MOI 100, 1 h post-infection",significantly diminished ability to invade cells
same,ability of EGDe bacteria to invade cells (CFU assay),"[1]; no pre-treatment, phloretin 58.34 μM only during infection, Caco-2, 1 h post-infection",this inhibition was not observed
same,entry of EGDe bacteria into host cells (immunostaining),"[1]; pre-treatment with phloretin 58.34 μM, Caco-2, 1 h post-infection",significantly reduced the entry
same,multiplication of intracellular bacteria,[2],significantly reduced the multiplication of intracellular bacteria
